For one compound, IC50 results are on record in ChEMBL document CHEMBL1149372, “Discovery of novel and potent thiazoloquinazolines as selective Aurora A and B kinase inhibitors” (J Med Chem, 2006).

Protein sequences, listed by entry. Tags and fused reporters are not part of them.
UniProt P53350, whole entry: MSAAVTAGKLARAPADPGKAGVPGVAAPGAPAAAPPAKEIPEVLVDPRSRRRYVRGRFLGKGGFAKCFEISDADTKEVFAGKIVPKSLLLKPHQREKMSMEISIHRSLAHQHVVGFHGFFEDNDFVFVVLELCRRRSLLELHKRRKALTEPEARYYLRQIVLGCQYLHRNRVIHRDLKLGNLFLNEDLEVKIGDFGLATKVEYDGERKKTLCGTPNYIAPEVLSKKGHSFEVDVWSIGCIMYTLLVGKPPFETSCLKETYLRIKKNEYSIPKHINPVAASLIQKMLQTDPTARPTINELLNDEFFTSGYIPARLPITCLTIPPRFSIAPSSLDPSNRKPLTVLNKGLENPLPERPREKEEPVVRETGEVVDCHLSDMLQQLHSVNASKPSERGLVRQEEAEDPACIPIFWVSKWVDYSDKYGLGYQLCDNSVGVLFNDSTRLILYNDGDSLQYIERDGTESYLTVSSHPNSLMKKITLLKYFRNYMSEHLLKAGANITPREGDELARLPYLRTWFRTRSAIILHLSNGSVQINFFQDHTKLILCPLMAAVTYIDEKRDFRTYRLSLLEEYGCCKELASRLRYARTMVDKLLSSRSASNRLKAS
UniProt P06493, whole entry: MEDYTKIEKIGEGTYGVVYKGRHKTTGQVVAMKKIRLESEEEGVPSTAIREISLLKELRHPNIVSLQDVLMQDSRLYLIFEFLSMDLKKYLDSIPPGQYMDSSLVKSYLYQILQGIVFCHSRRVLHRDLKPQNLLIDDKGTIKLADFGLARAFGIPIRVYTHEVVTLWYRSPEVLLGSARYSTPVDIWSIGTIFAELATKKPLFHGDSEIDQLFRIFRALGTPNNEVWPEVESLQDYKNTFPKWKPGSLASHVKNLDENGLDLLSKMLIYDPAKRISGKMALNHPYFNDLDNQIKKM

Assay [1] addresses Serine/threonine-protein kinase PLK1 (Homo sapiens, UniProt P53350). Briefly: Inhibition of in vitro Plk1 kinase activity.
In assay [2] the target is Cyclin-dependent kinase 1 (Homo sapiens, UniProt P06493). Briefly: Inhibition of in vitro CDK1 kinase activity.

Bounds are passed on as bounds.

`COc1cc2c(Nc3ccc(NC(=O)c4ccccc4)cc3)ncnc2cc1OCCCN1CCOCC1`: the IC50 in assay [1] and in assay [2] was > 10 µmol each time.
